Measurements published in US7179632B2, “Process for the production of allicin” (Neem Biotech Ltd., priority 2001, dated 2007).

Assay: Solubility of alliin in water
Format: physicochemical

S-allyl-L-cysteine sulfoxide [Alliin]
solubility in water: freely soluble
